Series [1] can be described thus: Solid stability test of crystal form A (XRPD). Here is the method: • Instrument model: Empyrean X-ray diffractometer
Test method: an appropriate amount of sample was evenly spreaded on a single crystal silicon sample plate and the XRPD test was performed using the following parameters.
The detailed XRPD parameters are as follows: • Instrument name: X-ray powder diffraction • Instrument manufacturer: Malvern Panalytical Co., Ltd. • Method parameters: • X-ray: Cu, kα, Kα1 (Å): 1.54060; Kα2 (Å): 1.54443; Kα2/Kα1 intensity ratio: 0.50 • X-ray tube settings: 45 kV, 40 mA • Divergence slit: fixed ⅛° • Anti-scatter slit: ¼° • Detector slit: P7.5 • Scan mode: Continuous • Scanning range (° 2Theta): 3-40 • Scan time per step(s): 46.665 • Scan step (° 2Theta): 0.0263 • Test time (min): 5
About 1.5 g of crystal form A of the compound of formula (I) was respectively weighed, placed at the bottom of a glass sample bottle, and spread into a thin layer. The sample was completely exposed. The samples that were placed at high temperature and high humidity were sampled and tested on the 10th day and 30th day (XRPD). For illumination, the samples were placed in a clean surface dish, spread into a thin layer, and covered with a quartz glass cover, and then sampled and tested on the 5th day and 10th day (XRPD). For long-term tests and accelerated tests (dark), each sample was placed in a double-layer LDPE bag, and each layer of the LDPE bag was sealed with buckles. Then the LDPE bag was placed in an aluminum foil bag that has been added with a bag of desiccant. The aluminum foil bag was heat-sealed, and placed under 25 °C/60% RH, 30 °C/65% RH and 40 °C/75% RH conditions for inspection. The test results were compared with the initial test results of Day 0.

Sequences of proteins named here, by UniProt entry; tags and fusion partners are left off. Residues count along the entry.
UniProt P29597, 575-869 limits assumed: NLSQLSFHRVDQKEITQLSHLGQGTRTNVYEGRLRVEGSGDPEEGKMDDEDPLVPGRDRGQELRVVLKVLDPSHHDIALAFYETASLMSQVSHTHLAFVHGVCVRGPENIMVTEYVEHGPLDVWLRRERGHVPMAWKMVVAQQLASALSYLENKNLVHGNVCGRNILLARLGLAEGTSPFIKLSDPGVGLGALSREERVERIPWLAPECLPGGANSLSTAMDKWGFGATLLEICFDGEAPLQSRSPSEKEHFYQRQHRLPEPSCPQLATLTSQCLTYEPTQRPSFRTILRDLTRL

In series [2] the target is Tyk2 JH2 (His-TVMV-TYK2 JH2 (575-869)) (Homo sapiens, UniProt P29597). As to the kind of experiment: Tyk2 JH2 enzyme activity test (HTRF, fluorescein-labeled kinase tracer, terbium-labeled His antibody). Here is the method:
To a buffer solution containing 20 mM of Hepes pH 7.5, 10 mM of MgCl2, 0.015% of Brij-35, 2 mM of DTT and 50 μg/mL of BSA were added 0.5 nM of TYK2 protein (His-TVMV-TYK2 JH2 (575-869)), 0.2 nM of terbium-labeled His antibody, fluorescein-labeled kinase tracer at the relevant Kα value, and the test compound. The test system was incubated at room temperature for 90 minutes. Subsequently, the generated HTRF (homogeneous time-resolved fluorescence) signal, i.e., the ratio of the fluorescence intensity of the fluorescein acceptor (520 nm) and the terbium donor (495 nm) at the emission wavelength, was measured on an Envision plate reader, and the IC50 value was calculated based on this.
On the technique in general: Time-resolved FRET reads energy transfer from a long-lived donor to a nearby acceptor.

In series [3] the test system is IFNα-stimulated phosphorylated STAT1 (human peripheral blood mononuclear cells). As to the kind of experiment: IFNα-stimulated phosphorylation STAT1 assay in hPBMC (CD4+ T cells, flow cytometry). The conditions noted are these: result in words. How it is done:
Human peripheral blood mononuclear cells (hPBMC) were seeded at a cell density of 1×10^5 cells/well and placed in an incubator at 37 °C for 90 minutes. Then different concentrations of compounds were added to the cells, wherein the concentration range of each compound started from 2 μM, which was serially diluted 5-fold to obtain a total of 8 concentration gradients. The compounds and cells were incubated at 37 °C for 30 minutes. hPBMC were stimulated with IFN-α (1000 U/ml), and then the level of phosphorylated STAT1 in CD4+ T cells was detected by flow cytometry to evaluate the inhibitory activity of the compound on the IFN-α pathway. The results of the in vitro cell activity assay of the free base of the compound of the present disclosure are shown in Table 4: […]

The conditions of series [4]: Phase III, massive psoriasis; result in words; cited from earlier work.

What is called IC50 is the midpoint of a concentration-inhibition curve.

With `Cl.[2H]C([2H])([2H])CC(=O)c1cnc(NC(=O)C2CC2)cc1Nc1cccc(-c2cnc(N=S(C)(C)=O)cn2)c1OC`, the Crystal form entry in series [1] (25 °C/60% RH, 3 M) is given as “form A”; in series [1] (25 °C/60% RH, 6 M) it was “form A”; in series [1] (30 °C/65% RH, 1 M) it was “form A”; in series [1] (30 °C/65% RH, 3 M) it was “form A”; in series [1] (30 °C/65% RH, 6 M) it was “form A”; in series [1] (40 °C/75% RH, 1 M), “form A”. For the same compound, the Crystal form result in series [1] (40 °C/75% RH, 3 M) is “form A”; in series [1] (40 °C/75% RH, 6 M), “form A”; in series [1] (Day 0 (initial)), “form A”; in series [1] (High humidity (25 °C/relative humidity 92.5%), Day 10), “form A”; in series [1] (High humidity (25 °C/relative humidity 92.5%), Day 30), “form A”; in series [1] (High temperature (60 °C), Day 10), “form A”. Besides, the Crystal form result is on record as “form A” in series [1] (High temperature (60 °C), Day 30); “form A” in series [1] (Strong illumination (5000 lx and UV intensity 90 w/cm^2, open), Day 5); “form A” in series [1] (Strong illumination (5000 lx and UV intensity 90 w/cm^2, open), Day 10). For the same compound, the “stability (conclusion)” value in series [1] (high temperature, high humidity, strong illumination, long-term accelerated test conditions, result in words) was “good stability”.

For the compound `[2H]C([2H])([2H])CC(=O)c1cnc(NC(=O)C2CC2)cc1Nc1cccc(-c2cnc(N=S(C)(C)=O)cn2)c1OC`, in series [2] (read-out: Tyk2 JH2 IC50, room temperature, 90 minutes incubation, 0.5 nM TYK2 protein), the IC50 was determined as 0.04 nM. In addition, the “inhibitory activity against Tyk2 JH2 (conclusion)” value in series [2] (result in words) is “strong inhibitory activity”. Further, the “Tyk2-related cellular activity on IFNα-stimulated phosphorylated STAT1 (conclusion)” value in series [3] is listed as “strong Tyk2-related cellular activity”.

For `CNC(=O)c1nnc(NC(=O)C2CC2)cc1Nc1cccc(-c2ncn(C)n2)c1OC`, the safety entry in series [4] is reported as “good safety”.

The values above are taken from US20260384411A1, “SALT FORM AND CRYSTAL FORM OF PYRIDINE MULTI-SUBSTITUTED COMPOUND AND PREPARATION METHOD THEREFOR” (published 2026).
